Test results: patent US20250206721A1, “Prostaglandin Receptor EP2 Antagonists, Derivatives, and Uses Related Thereto” (Emory University, priority 2019, published 2025)

By UniProt entry, the sequences of proteins in these tests, tags left out. Where a name states a change or a piece, a line headed by the entry shows the natural chain unless it says otherwise.
UniProt P43116: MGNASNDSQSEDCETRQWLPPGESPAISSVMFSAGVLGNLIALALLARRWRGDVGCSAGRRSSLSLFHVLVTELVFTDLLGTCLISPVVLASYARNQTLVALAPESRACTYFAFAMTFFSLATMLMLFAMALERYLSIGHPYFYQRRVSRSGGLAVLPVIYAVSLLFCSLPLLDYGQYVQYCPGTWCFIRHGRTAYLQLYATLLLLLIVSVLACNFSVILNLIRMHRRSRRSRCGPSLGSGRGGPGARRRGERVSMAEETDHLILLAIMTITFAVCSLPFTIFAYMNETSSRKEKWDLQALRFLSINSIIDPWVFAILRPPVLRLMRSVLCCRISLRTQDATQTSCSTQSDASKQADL
UniProt P43119: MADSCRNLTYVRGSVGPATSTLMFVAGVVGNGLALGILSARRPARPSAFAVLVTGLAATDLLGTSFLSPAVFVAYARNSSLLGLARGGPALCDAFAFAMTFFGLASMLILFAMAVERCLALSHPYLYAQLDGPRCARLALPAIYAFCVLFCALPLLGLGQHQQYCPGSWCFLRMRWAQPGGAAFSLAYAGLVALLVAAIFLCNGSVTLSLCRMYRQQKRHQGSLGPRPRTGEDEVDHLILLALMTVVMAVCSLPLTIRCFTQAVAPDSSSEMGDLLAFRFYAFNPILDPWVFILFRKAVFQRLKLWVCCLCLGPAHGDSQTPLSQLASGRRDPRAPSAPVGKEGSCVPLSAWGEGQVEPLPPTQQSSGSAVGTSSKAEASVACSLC

Assays:
human EP2 receptor = target: T1, human EP2 receptor (Homo sapiens, UniProt P43116); assay: Cell-based cAMP TR-FRET assay, Schild KB on EP2; conditions: for Kb: Schild KB, agonist PGE2, antagonist concentration 1 μM, C6G cells expressing human EP2
T1 construct: expressed in transfected cells

[1] = Mouse liver microsomal (MLM) stability; conditions: for MLM T½: 1 μM compound, 0.125 mg/mL liver microsomes, NADPH; for fold higher half-life in liver microsomes: 24i vs 20o, 20c vs 20b, 20f vs 20e
human IP receptor = human IP receptor (Homo sapiens, UniProt P43119); assay: Cell-based cAMP TR-FRET assay on IP (agonist iloprost)
[2] = Kinetic aqueous solubility in PBS by nephelometry; conditions: PBS buffer (pH 7.4) with 1% DMSO

## Cc1[nH]c2ccccc2c1CCNC(=O)c1ccc(-c2ccccc2)nc1 [Compound 8a, N-(2-(2-Methyl-1H-indol-3-yl)ethyl)-6-phenylnicotinamide]
Human EP2 receptor
  Kb: 23.2 nM

## COc1cccc(-c2ccc(C(=O)NCCc3c(C)[nH]c4ccccc34)cn2)c1 [Compound 8b, 6-(3-Methoxyphenyl)-N-(2-(2-methyl-1H-indol-3-yl)ethyl)nicotinamide]
Human EP2 receptor
  Kb: 9.5 nM
Human EP2 receptor; comparator 2a
  fold improved EP2 potency in comparison to 2a: 2 fold

## COc1ccccc1-c1ccc(C(=O)NCCc2c(C)[nH]c3ccccc23)cn1 [Compound 8c, 6-(2-Methoxyphenyl)-N-(2-(2-methyl-1H-indol-3-yl)ethyl)nicotinamide]
[1]
  MLM T½: very short half-life

## Cc1[nH]c2ccccc2c1CCNC(=O)c1ccc(-c2ccccc2O)nc1 [Compound 8d, 6-(2-Hydroxyphenyl)-N-(2-(2-methyl-1H-indol-3-yl)ethyl)nicotinamide]
[1]
  MLM T½: very short half-life

## Cc1[nH]c2ccccc2c1CCNC(=O)c1ccc(-c2ccccc2F)nc1 [Compound 8e, 6-(2-Fluorophenyl)-N-(2-(2-methyl-1H-indol-3-yl)ethyl)nicotinamide]
Human EP2 receptor
  Kb: 48.4 nM

## COc1cc(OC)cc(-c2ccc(C(=O)NCCc3c(C)[nH]c4ccccc34)cn2)c1 [Compound 8g, 6-(3,5-Dimethoxyphenyl)-N-(2-(2-methyl-1H-indol-3-yl)ethyl)nicotinamide]
[1]
  MLM T½: very short half-life

## COc1cccc(-c2ccc(C(=O)NCCc3c(C)[nH]c4ccccc34)nc2)c1 [Compound 11a, 5-(3-Methoxyphenyl)-N-(2-(2-methyl-1H-indol-3-yl)ethyl)picolinamide]
Human EP2 receptor
  Kb: 48.6 nM

## COc1cc(OC)cc(-c2ccc(C(=O)NCCc3c(C)[nH]c4ccccc34)nc2)c1 [Compound 11b, 5-(3,5-Dimethoxyphenyl)-N-(2-(2-methyl-1H-indol-3-yl)ethyl)picolinamide]
Human EP2 receptor
  Kb: 33.6 nM

## COc1ccccc1-c1ncc(C(=O)NCCc2c(C)[nH]c3ccccc23)cn1 [Compound 14a, 2-(2-Methoxyphenyl)-N-(2-(2-methyl-1H-indol-3-yl)ethyl)pyrimidine-5-carboxamide]
[1]
  MLM T½: very short half-life

## Cc1[nH]c2ccccc2c1CCNC(=O)c1cnc(Nc2ccccn2)nc1 [Compound 20a, N-(2-(2-Methyl-1H-indol-3-yl)ethyl)-2-(pyridin-2-ylamino)pyrimidine-5-carboxamide]
Human EP2 receptor
  Kb: 10.7 nM

## Cc1[nH]c2ccccc2c1CCNC(=O)c1cnc(Nc2cc(F)ccn2)nc1 [Compound 20c, 2-((4-Fluoropyridin-2-yl)amino)-N-(2-(2-methyl-1H-indol-3-yl)ethyl)pyrimidine-5-carboxamide]
[1]
  fold higher half-life in liver microsomes: 2 fold
Human EP2 receptor
  Kb: 6.4 nM

## Cc1cccc(Nc2ncc(C(=O)NCCc3c(C)[nH]c4ccccc34)cn2)n1 [Compound 20e, N-(2-(2-Methyl-1H-indol-3-yl)ethyl)-2-((6-methylpyridin-2-yl)amino)pyrimidine-5-carboxamide]
Human EP2 receptor
  Kb: 6.1 nM

## Cc1cc(C)nc(Nc2ncc(C(=O)NCCc3c(C)[nH]c4ccc(F)cc34)cn2)c1 [Compound 24a, 2-((4,6-Dimethylpyridin-2-yl)amino)-N-(2-(5-fluoro-2-methyl-1H-indol-3-yl)ethyl)pyrimidine-5-carboxamide]
Human IP receptor
  Kb: > 10000 nM

## Cc1cc(C)nc(Nc2ncc(C(=O)NCC(O)c3c(C)[nH]c4ccccc34)cn2)c1 (centres unmarked) [Compound 24i, 2-((4,6-Dimethylpyridin-2-yl)amino)-N-(2-hydroxy-2-(2-methyl-1H-indol-3-yl)ethyl)pyrimidine-5-carboxamide]
[1]
  fold higher half-life in liver microsomes: 3 fold
[2]
  Aqueous Solubility: 57 µM
